# Reference: US7906156B2, “CB2 receptors blocks accumulation of human hepatic myofibroblasts: a novel antifibrogenic pathway in the liver” (priority 2003, dated 2011)
# Test system: human hepatic myofibroblasts
# Experiment: Cell viability (MTS assay) / cytotoxicity of serum-deprived hepatic myofibroblasts
# Type: cell-based
# Conditions: pretreatment before THC
# Protocol: Cell viability. […] CellTiter 96 AQueous One Solution reagent was added to each well and absorbance was recorded at 490 nm.
substance,measurement,value
"N-[1S)-endo-1,3,3,-trimethyl bicyclo[2.2.1]heptan-2-yl]-5-(choloro-3-methylphenyl)-1-(4-methyl-benzyl)-pyrazole-3-carboxamide [SR 144528]",effect on cytotoxic effect / cell death triggered by THC,blunted
